Consider 1 compound from PMC8675330, “Encapsulated Escitalopram and Paroxetine Intranasal Co-Administration: In Vitro/In Vivo Evaluation” (Frontiers in Pharmacology, 2021).

The nature of the data set: In vivo pharmacokinetics in plasma, brain and lung after IV, IN and IN + BorNLC co-administration. Also on record: species or system CD-1 mice. The following applies: escitalopram; IN free drug vs IV; 2.38 mg/kg. On the procedure:
Healthy adult CD-1 mice (25–30 g) were acquired from Charles River Laboratories (L’Arbresle, France) and accommodated in a relative humidity of 55 ± 5%, a controlled temperature of 20 ± 2°C, and reversed 12 h light–dark cycles. The studies were always performed in the dark phase (active phase between 08h00 and 20h00). A period of at least 7 days was considered for the animals to become familiarized with the environment. Animals had ad libitum access to food (4RF21, Mucedola®, Italy) and tap water during the entire experiment period.
Before treatment, animals were anesthetized by intraperitoneal administration of a mixture of ketamine (100 mg/kg) and xylazine (10 mg/kg) to keep them immobile during IN or IV administration. Animals were randomly divided into 3 groups (n = 28) and subdivided into 7 time-points (n = 4). […]
Animals were sacrificed by cervical dislocation and decapitation at 5, 15, 30, 60, 120, 240, and 480 min after administration, and heparinized tubes were used for blood collection. Blood samples were centrifuged at 1,252 g for 10 min at 4°C, and plasma supernatants were analyzed by HPLC-DAD. […]
Briefly, 300 μl of methanol were added to 200 μl of plasma, 200 μl of lung homogenate, or 400 μl of brain homogenate for protein precipitation. […] The detection wavelength to quantify the IS was set at 290 nm.

Where a name gives a salt, the structure may show the parent alone.

On to `CN(C)CCC[C@@]1(c2ccc(F)cc2)OCc2cc(C#N)ccc21` [Escitalopram, escitalopram oxalate], for which the “DTE (drug targeting efficiency)” value is recorded as 98.8% and the “DTP (direct transport percentage)” value is −1.21%.
